Source: PubChem BioAssay AID1508623 (National Center for Advancing Translational Sciences (NCATS), 2021)
Only a part is listed here, and it is no random draw. Inconclusive results are not listed. The source made the active and inactive calls. The call rests on the fitted dose curve; in most records, active means well fitted inhibition curve with a large enough effect; inconclusive means small, poorly fitted or top-dose-only effect; inactive means no such curve, though single readings can be large or run the other way.

Test: Primary qHTS for Identification of Small Molecule Inhibitors of Huntingtin Promoter Activity; further: nearly all actives have a fitted effect of over 50% in size
Conditions: HEK293 HTT promoter firefly luciferase reporter (activity 0% = vehicle and -100% = no light), 24 h; at 57.5 µM (top of the series) unless noted
Text: Assay Provider: Russell L. Margolis M.D.
Department Neurology, Johns Hopkins University School of Medicine, Baltimore, MD
Huntington's Disease (HD) is a neurodegenerative disorder caused by a CAG repeat expansion in exon 1 of huntingtin (HTT). While there are currently no disease-modifying treatments for HD, recent efforts have focused on development of nucleotide-based therapeutics to lower HTT expression. As an alternative to siRNA or oligonucleotide methods, we hypothesized that suppression of HTT expression might be accomplished by small molecules that either (1) directly decrease HTT expression by suppressing HTT promoter activity or (2) indirectly decrease HTT expression by increasing the promoter activity of HTT-AS, the gene antisense to HTT that appears to inhibit expression of HTT.
We developed and employed a high throughput screen for modifiers of HTT and HTT-AS promoter activity using luminescent reporter HEK293 cells; of the 52,041 compounds tested, we identified 898 replicable hits. We used a rigorous stepwise approach to assess compound toxicity and the capacity of the compounds to specifically lower huntingtin protein in 5 different cell lines, including HEK293 cells, HD lymphoblastoid cells, mouse primary neurons, HD iPSCs differentiated into cortical-like neurons, and HD hESCs. We found no compounds which were able to lower huntingtin without lowering cell viability in all assays, though the potential efficacy of a few compounds at non-toxic doses could not be excluded.
SEQUENCE No. (1, 2, 3, etc.); […] (e.g., Cells, Incubation, Reagent, etc.); VALUE and DESCRIPTION.
1; Reagent; 4 uL; 2,500 Hek293 luciferase reporter cells per wells
3; Compound; 23 nL; Control inhibitor / compound library
5; Reagent; 2.5 uL; Firefly Luc reagent; Dual-Glo Luciferase Reporter Assay System (Promega)
6; Time; 10 min; room temperature incubation
7; Detection; Luminescence; FLuc
NOTES (numbers refer to sequence above)
1; High-throughput screening, measuring luminescence from a Hek293 luciferase reporter, was performed in 1,536 well white-walled tissue-culture treated plates. 2,500 cells were plated in 4 µL of Opti-MEM per well using a Multidrop Combi Reagent Dispenser (ThermoFisher).
2; Assay plates were cultured for 24 hours.
3; Control inhibitor (PTC124; final concentration of 50 uM) and compound library (at final concentrations of 460 nM - 57.5 uM) were added to the assay plate using the Kalypsis Pintool Robotic System equipped with 1536 pinheads.
4; Cells were then incubated for 24 hours at 37 degrees C prior to luminescence measurements.
5; In all cases, luminescence was measured using the Dual-Glo Luciferase Reporter Assay System (Promega) following the manufacturer's instructions.
6; Room temperature incubation.
7; Luminescence signal was obtained using the PerkinElmer ViewLux plate reader. Results were normalized to vehicle control (0% activity) and zero RLU (-100% activity).

Row | SMILES | activity change, negative = inhibition
1 | O=[N+]([O-])c1cccc([N+](=O)[O-])c1 | inactive: 17.6% [at 116 µM]
2 | CCOP(=O)(CC)Oc1ccc([N+](=O)[O-])cc1 (stereo not given) | inactive: -8.22%
3 | Cc1cccc([N+](=O)[O-])c1[N+](=O)[O-] | inactive: -2.37% [at 116 µM]
4 | C/C1=C2N=C(/C=C3N=C(/C(C)=C4\[N-][C@@](C)([C@@H]5N=C1[C@](C)(CCC(=O)NC[C@@H](C)OP(=O)([O-])O[C@H]1[C@@H](O)[C@@H](n6cnc7cc(C)c(C)cc76)O[C@@H]1CO)[C@H]5CC(N)=O)[C@@](C)(CC(N)=O)[C@@H]4CCC(N)=O)[C@@](C)(CC(N)=O)[C@@H]\3CCC(N)=O)C(C)(C)[C@@H]/2CCC(N)=O.[C-]#N.[Co+3] | inactive: -28.8%
5 | OCCSCCO | inactive: 4.17%
